1 substance from publication PMC2697320, “Identification of the high affinity binding site in the Streptococcus intermedius toxin intermedilysin for its membrane receptor, the human complement regulator CD59” (Molecular Immunology, 2009) can be followed below.

The test concerns the target Recombinant soluble CD59 comprising amino acids 1-76 with an 11 amino acid Ser/Gly linker and termin (human). The test can be described thus: SPR; Biacore T100; CD59 immobilised through its terminal Cys by thiol coupling on a CM5 chip; analyte flowed at 30 ul/min, 25 C; HBS with 0.05% surfactant P20 and 3 mM EDTA; affinity by steady state analysis. Background: SPR reads the build-up and loss of mass on a sensor chip optically.

Usually Kd stands for the free concentration of one partner at which half of the binding sites on the other are occupied at equilibrium, for simple one-to-one binding. For the substance “Intermedilysin (recombinant mature ILY) (natural protein)”, the Kd was found to be 4.29 nM.
